Data as given in ChEMBL document CHEMBL4396871, “Leveraging a Low-Affinity Diazaspiro Orthosteric Fragment to Reduce Dopamine D3 Receptor (D3R) Ligand Promiscuity across Highly Conserved Aminergic G-Protein-Coupled Receptors (GPCRs)” (J Med Chem, 2019).

By UniProt entry, the sequences of proteins in these tests, tags left out.
UniProt P21728, whole entry: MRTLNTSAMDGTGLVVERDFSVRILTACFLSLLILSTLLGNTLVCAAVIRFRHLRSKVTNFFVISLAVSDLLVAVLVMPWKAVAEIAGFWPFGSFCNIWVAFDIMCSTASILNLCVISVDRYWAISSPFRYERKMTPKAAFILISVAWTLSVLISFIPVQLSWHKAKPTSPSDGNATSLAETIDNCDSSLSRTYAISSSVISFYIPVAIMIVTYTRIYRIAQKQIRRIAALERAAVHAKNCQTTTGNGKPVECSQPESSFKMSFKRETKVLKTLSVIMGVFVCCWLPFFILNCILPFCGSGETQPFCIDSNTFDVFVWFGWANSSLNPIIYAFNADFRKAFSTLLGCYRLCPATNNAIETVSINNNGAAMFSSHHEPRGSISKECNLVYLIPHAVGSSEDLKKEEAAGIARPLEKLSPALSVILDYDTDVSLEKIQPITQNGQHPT

Key:
Homo sapiens = organism: Homo sapiens; experiment: Selectivity ratio of Ki for displacement of [125I]IABN from recombinant human D2 long receptor stably expressed in HEK293 cell membranes to Ki for displacement of [125I]IABN from recombinant human D3 receptor stably expressed in HEK293 cell membranes
D(1A) dopamine receptor = D(1A) dopamine receptor (Homo sapiens, UniProt P21728); details: 10 uM

Structure (SMILES)	Ratio Ki (Homo sapiens)	inhibition (D(1A) dopamine receptor) [%]
COc1ccccc1N1CCN(CCCSc2nnc(-c3ccccc3)n2C)CC1	40.2	< 50
COc1ccccc1N1CCC2(CCN(CCCSc3nnc(-c4ccccc4)n3C)CC2)C1	315	–
COc1ccccc1N1CCC2(CCN(CCCSc3nnc(-c4ccccc4)n3C)CC2)CC1	905	< 50
